Experiment [1] addresses T1, biotin-^K48Ub2 (chemically synthesized K48-linked di-ubiquitin, biotin on the distal Ub) (UniProt P0CG48 1-76, isopeptide bond from the C-terminus of the distal Ub to Lys48 of the proximal Ub; biotin at the N-terminus of the distal Ub).
T1 construct: mature; also called Lys48-linked ubiquitin dimer
Briefly: SPR, K48-Ub2. Background: SPR reads the build-up and loss of mass on a sensor chip optically.

The target of experiment [2] is T1, biotin-^K48Ub2 (chemically synthesized …). Briefly: SPR, K48-Ub2. This is another data set of the same source.
For experiment [3] the target is unchanged. The experiment is described as follows: SPR, K48-Ub2; pClBz anchor, not mClBz; wildtype J08.

The Kd is the constant that tells how readily two partners part at equilibrium.

Molecule WYDREYYYLGYGCG (N-terminal pClBz thioether anchor (M*), cyclized through the chlorobenzyl group, also called J01 (M* = pClBz)) [J01_pClBz] yielded a Kd in experiment [1] of 141 nM.

B1: J01_mClBz (peptide)
peptide: WYDREYYYLGYGCG
modifications: N-terminal mClBz thioether anchor (M*), cyclized through the chlorobenzyl group
notes: M* is the anchor and is not counted as a residue; also called J01 (M* = mClBz)
On to B1, for which binding in experiment [1] was characterised by a dissociation constant (Kd) of 141 nM.
In experiment [2], GWFDDEYWFYAYCG (N-terminal mClBz thioether anchor (M*), cyclized) [J08_mClBz_L6E_L8W_V10Y] returned a Kd of 7.6 nM.
As to GWFDDLYLYVAYCG (N-terminal mClBz thioether anchor, cyclized) [J08_mClBz_F9Y], in experiment [2], binding was put at a Kd of 0.58 nM.
As for GWFDDLYLFYAYCG (N-terminal mClBz thioether anchor (M*), cyclized) [J08_mClBz_V10Y], the dissociation constant Kd in experiment [2] and in experiment [1] was 5.6 nM throughout.
For the molecule GWFDDLYWFVAYCG (N-terminal mClBz thioether anchor (M*), cyclized, also called J08_L8W) [J08_mClBz_L8W], the Kd in experiment [2] and in experiment [1] was 1.2 nM in each case.
GWFDDLYLFVAYCG (N-terminal pClBz thioether anchor (M*), cyclized through the chlorobenzyl group, also called J08 (M* = pClBz)) [J08_pClBz]: the affinity in experiment [3], expressed as Kd, was 234 nM.
Molecule GWFDNLYWYITHCG (N-terminal mClBz thioether anchor (M*), cyclized through the chlorobenzyl group, also called J02 (M* = mClBz)) [J02_mClBz] registered a Kd in experiment [1] of 16 nM.
The same measure, in the same setting: the same measure for GWFDNLYWYITHCG (N-terminal pClBz thioether anchor (M*), cyclized through the chlorobenzyl group, also called J02 (M* = pClBz)) [J02_pClBz]: 48 nM.

Source of the values: patent publication US12084523 (TECHNION RESEARCH AND DEVELOPMENT FOUNDATION, dated 2024).
